Tests used:
[1] = molecular target: Aurora kinase B (Homo sapiens) (UniProt Q96GD4); experiment: Inhibition of human Aurora B using [H-LRRASLG] as substrate at 10 uM incubated for 40 min by Kinase HotSpotSM based scintillation counting assay
[2] = molecular target: Receptor-type tyrosine-protein kinase FLT3 (Homo sapiens) (UniProt P36888); experiment: Inhibition of human FLT3 using [EAIYAAPFAKKK] as substrate at 10 uM incubated for 40 min by Kinase HotSpotSM based scintillation counting assay
[3] = molecular target: Macrophage colony-stimulating factor 1 receptor (Homo sapiens) (UniProt P07333); experiment: Inhibition of human FMS using poly[Glu:Tyr] as substrate at 10 uM incubated for 40 min by Kinase HotSpotSM based scintillation counting assay
[4] = molecular target: PI3-kinase p110-alpha/p85-alpha (Homo sapiens) (UniProt P27986+P42336); experiment: Inhibition of human PI3Kb (p110a/p85a) using PI(4,5)P2:PS as substrate at 10 uM incubated for 40 min by Kinase HotSpotSM based scintillation counting assay; assay type: protein-complex assay
[5] = molecular target: Epithelial discoidin domain-containing receptor 1 (Homo sapiens) (UniProt Q08345); experiment: Inhibition of human DDR1 using [KKSRGDYMTMQIG] as substrate at 10 uM incubated for 40 min by Kinase HotSpotSM based scintillation counting assay
[6] = molecular target: Serine/threonine-protein kinase B-raf (Homo sapiens) (UniProt P15056); experiment: Inhibition of human BRAF using MEK1-K97M as substrate at 10 uM incubated for 40 min by Kinase HotSpotSM based scintillation counting assay
[7] = molecular target: Vascular endothelial growth factor receptor 2 (Homo sapiens) (UniProt P35968); experiment: Inhibition of human KDR/VEGFR2 using poly[Glu:Tyr] as substrate at 10 uM incubated for 40 min by Kinase HotSpotSM based scintillation counting assay
[8] = molecular target: T1, Aurora kinase A (Homo sapiens) (UniProt O14965); experiment: Inhibition of human Aurora A using [H-LRRASLG] as substrate at 10 uM incubated for 40 min by Kinase HotSpotSM based scintillation counting assay
T1 sequence (whole entry): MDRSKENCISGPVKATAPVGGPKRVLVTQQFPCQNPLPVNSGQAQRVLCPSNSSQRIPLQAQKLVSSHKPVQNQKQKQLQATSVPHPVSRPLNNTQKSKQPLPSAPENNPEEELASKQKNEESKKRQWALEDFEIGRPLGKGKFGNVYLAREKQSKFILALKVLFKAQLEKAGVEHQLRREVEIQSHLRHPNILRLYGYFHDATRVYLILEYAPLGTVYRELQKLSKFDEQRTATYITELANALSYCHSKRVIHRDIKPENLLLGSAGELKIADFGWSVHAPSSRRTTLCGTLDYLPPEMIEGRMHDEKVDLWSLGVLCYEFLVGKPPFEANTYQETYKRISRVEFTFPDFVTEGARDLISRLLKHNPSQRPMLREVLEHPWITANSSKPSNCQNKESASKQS

Protein sequences, listed by entry. Tags and fused reporters are not part of them. Lines headed by an entry give the natural chain unless they say otherwise; changes in a name come on top.
UniProt Q96GD4, whole entry: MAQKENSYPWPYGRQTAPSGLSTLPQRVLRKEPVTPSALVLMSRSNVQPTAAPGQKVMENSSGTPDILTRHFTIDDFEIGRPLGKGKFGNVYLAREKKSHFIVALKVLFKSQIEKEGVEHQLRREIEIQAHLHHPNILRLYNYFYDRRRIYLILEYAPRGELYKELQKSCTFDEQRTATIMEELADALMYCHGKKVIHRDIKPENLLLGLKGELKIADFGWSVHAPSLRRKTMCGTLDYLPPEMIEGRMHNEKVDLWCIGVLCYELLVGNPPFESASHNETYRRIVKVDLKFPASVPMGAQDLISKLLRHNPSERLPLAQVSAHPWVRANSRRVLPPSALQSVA
UniProt P36888, whole entry: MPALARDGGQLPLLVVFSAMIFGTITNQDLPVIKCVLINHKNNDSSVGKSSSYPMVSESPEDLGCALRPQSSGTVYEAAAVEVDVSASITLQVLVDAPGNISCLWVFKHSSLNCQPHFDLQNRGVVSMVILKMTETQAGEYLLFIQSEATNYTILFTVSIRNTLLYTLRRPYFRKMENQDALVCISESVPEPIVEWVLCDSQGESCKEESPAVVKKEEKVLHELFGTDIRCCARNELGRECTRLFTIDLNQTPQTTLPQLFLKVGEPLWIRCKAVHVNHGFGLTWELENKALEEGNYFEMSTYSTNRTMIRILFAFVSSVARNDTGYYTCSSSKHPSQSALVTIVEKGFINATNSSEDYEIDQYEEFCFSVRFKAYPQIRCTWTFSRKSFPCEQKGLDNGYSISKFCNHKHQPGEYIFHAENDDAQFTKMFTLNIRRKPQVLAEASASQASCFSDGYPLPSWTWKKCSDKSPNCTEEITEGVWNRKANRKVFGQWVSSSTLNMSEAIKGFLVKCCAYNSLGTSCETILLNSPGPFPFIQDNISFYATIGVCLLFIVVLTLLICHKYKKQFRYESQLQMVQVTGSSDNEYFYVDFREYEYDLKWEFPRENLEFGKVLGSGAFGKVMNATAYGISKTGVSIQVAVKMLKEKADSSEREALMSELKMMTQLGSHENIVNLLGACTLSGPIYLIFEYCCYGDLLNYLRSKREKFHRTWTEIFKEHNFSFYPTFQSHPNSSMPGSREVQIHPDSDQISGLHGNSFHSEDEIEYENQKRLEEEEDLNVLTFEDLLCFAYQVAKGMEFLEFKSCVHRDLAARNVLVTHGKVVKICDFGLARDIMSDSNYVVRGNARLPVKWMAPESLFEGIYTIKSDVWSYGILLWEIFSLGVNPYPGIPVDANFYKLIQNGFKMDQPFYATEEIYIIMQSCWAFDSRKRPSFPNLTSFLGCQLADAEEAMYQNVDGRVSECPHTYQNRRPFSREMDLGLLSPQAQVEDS
UniProt P07333, whole entry: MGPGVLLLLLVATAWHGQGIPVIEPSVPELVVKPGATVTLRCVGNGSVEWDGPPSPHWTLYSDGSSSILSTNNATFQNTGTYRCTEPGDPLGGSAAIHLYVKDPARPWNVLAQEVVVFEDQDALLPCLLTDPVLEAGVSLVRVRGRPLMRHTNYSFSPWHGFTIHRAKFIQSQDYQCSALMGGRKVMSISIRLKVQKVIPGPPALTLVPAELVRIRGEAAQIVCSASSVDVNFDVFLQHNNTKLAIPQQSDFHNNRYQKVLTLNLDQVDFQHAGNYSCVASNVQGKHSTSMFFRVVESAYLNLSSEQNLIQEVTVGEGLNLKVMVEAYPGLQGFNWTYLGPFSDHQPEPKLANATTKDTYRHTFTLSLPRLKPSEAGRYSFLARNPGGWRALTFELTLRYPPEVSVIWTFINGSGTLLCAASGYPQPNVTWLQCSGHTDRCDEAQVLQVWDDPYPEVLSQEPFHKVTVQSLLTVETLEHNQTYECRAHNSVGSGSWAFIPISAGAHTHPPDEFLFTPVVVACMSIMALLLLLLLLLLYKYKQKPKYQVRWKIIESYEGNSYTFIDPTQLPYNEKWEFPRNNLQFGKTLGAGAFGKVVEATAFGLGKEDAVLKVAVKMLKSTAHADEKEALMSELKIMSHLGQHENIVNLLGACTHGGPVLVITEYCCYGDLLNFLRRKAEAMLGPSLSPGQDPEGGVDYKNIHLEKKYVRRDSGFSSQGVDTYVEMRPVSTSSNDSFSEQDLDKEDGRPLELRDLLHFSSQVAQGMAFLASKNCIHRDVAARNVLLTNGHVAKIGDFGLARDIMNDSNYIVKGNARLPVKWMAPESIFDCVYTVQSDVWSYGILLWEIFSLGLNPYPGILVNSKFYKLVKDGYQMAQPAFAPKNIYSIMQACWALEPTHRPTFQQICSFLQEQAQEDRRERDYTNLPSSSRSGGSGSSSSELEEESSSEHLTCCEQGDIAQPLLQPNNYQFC
UniProt P42336: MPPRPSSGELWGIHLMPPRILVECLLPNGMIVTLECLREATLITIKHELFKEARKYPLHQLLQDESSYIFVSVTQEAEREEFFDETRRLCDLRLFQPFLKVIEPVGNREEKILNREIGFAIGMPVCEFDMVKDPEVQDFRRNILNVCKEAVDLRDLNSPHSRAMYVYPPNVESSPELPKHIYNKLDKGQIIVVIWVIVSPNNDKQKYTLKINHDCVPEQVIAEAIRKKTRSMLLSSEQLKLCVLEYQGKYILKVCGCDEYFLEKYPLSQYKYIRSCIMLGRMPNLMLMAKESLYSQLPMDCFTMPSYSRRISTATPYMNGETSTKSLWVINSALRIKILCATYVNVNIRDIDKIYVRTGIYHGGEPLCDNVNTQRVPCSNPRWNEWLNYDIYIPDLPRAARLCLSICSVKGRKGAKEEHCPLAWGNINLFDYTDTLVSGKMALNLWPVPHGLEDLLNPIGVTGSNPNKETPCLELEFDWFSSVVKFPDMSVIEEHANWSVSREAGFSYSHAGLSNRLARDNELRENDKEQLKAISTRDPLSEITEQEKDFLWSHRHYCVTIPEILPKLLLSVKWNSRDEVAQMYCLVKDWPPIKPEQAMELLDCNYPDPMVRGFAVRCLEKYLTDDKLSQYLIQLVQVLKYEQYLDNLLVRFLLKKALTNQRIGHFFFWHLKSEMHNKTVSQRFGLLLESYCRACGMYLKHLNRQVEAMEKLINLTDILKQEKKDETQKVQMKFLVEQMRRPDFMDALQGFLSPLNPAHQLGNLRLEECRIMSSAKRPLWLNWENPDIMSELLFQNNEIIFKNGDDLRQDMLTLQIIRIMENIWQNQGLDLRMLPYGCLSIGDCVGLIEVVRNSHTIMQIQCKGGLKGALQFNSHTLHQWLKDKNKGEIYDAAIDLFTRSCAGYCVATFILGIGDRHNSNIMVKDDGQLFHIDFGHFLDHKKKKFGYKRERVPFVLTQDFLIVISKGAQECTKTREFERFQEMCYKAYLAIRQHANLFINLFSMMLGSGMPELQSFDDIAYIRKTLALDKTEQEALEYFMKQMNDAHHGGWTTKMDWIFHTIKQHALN
UniProt Q08345: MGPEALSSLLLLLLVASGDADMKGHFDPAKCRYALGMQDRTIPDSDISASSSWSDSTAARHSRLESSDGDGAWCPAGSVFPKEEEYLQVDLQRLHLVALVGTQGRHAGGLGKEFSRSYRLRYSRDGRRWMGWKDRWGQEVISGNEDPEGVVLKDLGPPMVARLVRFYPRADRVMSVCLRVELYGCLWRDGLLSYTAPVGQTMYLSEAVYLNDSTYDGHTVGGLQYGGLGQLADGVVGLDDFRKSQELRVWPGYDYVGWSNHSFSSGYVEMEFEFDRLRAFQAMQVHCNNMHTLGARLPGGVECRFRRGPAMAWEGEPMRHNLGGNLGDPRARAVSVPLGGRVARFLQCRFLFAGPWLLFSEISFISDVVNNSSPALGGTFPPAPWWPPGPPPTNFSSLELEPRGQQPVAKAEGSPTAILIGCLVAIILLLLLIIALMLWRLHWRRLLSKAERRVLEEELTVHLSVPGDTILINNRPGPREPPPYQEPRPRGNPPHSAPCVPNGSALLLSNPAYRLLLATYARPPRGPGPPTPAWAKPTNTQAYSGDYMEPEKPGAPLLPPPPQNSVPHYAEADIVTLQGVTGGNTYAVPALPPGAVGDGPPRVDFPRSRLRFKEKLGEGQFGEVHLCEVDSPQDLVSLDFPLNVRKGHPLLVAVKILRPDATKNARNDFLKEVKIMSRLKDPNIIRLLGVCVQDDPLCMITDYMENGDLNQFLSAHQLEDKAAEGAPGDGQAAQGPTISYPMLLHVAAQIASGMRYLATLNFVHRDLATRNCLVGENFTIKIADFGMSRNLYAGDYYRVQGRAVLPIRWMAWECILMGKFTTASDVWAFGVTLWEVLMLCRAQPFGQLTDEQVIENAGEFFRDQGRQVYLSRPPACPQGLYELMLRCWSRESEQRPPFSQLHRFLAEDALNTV
UniProt P15056, whole entry: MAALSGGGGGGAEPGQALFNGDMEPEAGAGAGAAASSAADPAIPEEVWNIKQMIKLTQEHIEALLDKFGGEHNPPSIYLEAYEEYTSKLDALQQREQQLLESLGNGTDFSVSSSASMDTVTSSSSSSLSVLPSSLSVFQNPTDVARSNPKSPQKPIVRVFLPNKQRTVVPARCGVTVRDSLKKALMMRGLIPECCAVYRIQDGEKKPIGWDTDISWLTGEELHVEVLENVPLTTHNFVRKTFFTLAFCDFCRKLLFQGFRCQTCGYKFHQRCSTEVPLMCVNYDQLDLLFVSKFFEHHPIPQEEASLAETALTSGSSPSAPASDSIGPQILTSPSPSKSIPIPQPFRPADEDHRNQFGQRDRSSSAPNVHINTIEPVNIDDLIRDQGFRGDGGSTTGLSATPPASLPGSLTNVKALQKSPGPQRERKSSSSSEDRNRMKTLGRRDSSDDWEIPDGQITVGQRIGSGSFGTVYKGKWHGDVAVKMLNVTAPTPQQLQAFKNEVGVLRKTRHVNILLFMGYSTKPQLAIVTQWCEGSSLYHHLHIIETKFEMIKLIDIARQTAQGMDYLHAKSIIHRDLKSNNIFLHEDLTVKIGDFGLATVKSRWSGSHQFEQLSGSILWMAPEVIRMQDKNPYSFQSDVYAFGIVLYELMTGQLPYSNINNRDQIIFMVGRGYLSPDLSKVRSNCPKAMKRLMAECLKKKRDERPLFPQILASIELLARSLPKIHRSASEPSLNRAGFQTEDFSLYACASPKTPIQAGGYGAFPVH
UniProt P35968, whole entry: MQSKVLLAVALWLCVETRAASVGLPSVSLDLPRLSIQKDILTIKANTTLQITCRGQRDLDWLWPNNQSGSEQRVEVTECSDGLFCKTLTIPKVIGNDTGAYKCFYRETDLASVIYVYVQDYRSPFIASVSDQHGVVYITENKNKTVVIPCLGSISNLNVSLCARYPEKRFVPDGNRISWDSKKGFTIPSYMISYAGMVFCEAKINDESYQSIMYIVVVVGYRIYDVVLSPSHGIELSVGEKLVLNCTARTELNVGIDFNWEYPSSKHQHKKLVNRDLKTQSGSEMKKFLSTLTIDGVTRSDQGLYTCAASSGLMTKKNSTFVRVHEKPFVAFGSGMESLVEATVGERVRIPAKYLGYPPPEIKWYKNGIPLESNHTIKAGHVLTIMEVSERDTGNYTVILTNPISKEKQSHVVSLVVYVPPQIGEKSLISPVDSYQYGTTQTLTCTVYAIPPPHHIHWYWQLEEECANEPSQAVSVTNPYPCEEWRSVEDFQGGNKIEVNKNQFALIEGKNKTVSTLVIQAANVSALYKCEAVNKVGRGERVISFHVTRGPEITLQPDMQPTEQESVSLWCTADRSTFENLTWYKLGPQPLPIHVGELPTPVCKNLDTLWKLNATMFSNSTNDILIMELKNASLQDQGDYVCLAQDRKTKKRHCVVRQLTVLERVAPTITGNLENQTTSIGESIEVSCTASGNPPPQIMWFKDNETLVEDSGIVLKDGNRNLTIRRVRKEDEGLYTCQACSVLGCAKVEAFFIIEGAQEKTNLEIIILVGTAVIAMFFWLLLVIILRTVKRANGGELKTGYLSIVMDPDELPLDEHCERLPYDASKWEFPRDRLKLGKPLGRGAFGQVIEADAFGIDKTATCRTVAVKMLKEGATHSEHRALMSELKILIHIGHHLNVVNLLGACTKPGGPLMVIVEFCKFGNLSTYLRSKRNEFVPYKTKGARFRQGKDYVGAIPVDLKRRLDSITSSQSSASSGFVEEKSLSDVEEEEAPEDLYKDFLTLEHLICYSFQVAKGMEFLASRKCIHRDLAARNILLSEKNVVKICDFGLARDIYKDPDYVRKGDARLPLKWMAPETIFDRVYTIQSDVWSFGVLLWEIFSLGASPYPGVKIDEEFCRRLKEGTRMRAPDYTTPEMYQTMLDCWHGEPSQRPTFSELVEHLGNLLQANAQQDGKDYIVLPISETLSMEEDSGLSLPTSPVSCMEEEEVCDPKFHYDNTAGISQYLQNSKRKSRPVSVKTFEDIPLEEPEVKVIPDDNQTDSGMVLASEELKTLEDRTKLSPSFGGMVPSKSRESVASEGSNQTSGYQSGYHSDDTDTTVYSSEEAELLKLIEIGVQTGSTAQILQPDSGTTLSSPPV

[9] = molecular target: RAF proto-oncogene serine/threonine-protein kinase (Homo sapiens) (UniProt P04049); experiment: Inhibition of human RAF1 using MEK1 (K97R) as substrate at 10 uM incubated for 40 min by Kinase HotSpotSM based scintillation counting assay

NS(=O)(=O)c1ccc(-n2cc(-c3cccc(NC(=O)c4ccc(Cl)c(C(F)(F)F)c4)c3)nn2)cc1
inhibition [1]: 13.4% | inhibition [2]: 2.3% | inhibition [3]: 16.2% | inhibition [4]: 13% | inhibition [5]: -4.7% | inhibition [6]: -9.8% | inhibition [7]: 1.1% | inhibition [8]: 8.1% | inhibition [9]: 5.5%

Reference: ChEMBL document CHEMBL6153068, “Novel N-(3-(1-(4-sulfamoylphenyl)triazol-4-yl)phenyl)benzamide Derivatives as Potent Carbonic Anhydrase Inhibitors with Broad-Spectrum Anticancer Activity: Leveraging Tail and Dual-Tail Approaches” (J Med Chem, 2025)
